The target in this test is T1, hKMT2D SET domain (Homo sapiens, UniProt O14686).
T1 construct: expressing amino acids 5308-5537 of the hKMT2D catalytic SET domain; 6xHis + TEV site (N, cleaved yes); made in house; host or cells: KMT2D Win-SET: Sf21 (baculovirus); WDR5, RbBP5, Ash2L, DPY30: E. coli Rosetta 2 (DE3); H3 peptides bought from Chinese Peptide Company
As to the kind of experiment: WRAD2 titration: MTase-Glo steady-state substrate matrix experiments. It is filed as biochemical. The note with it: assigned from the WRAD2 titration fits. On the procedure:
SET domain activity was monitored with a quantitative endpoint assay determining AdoHcy production using MTase-Glo by Promega.[39] Assays were performed as time courses at room temperature with buffer constituents, 50 mM Tris, pH 7.5, 50 mM NaCl, 1 mM DTT, 1% DMSO, and 0.005% w/v Triton X-100 in deionized water. […] Addition of 1 μL of 0.5% v/v TFA was used to stop the methylation reaction at defined time points; 1 μL of 6× concentrated MTase-Glo reagent was added to each well and incubated at room temperature. After 30 min, 6 μL of the prefiltered MTase-Glo detection reagent was added and incubated for a further 30 min at room temperature. Luminescence was measured using an Envision 2101 Multilabel plate reader, and product concentrations were calculated using an AdoHcy standard curve. Steady-state rates were obtained by plotting AdoHcy production over time and normalized to SET domain concentration. Experiments were performed in triplicate and expressed as the mean ± SD. Data were analyzed using nonlinear regression in GraphPad Prism v9.1.
Steady-state rates were measured in substrate matrix experiments. Data were globally fitted to ternary Bi–Bi and Ping–Pong models to obtain kcat and KM parameters (eqs 1 and 2).
The ternary Bi–Bi model [drawing 1] 1 The Ping–Pong model [drawing 2] […]

Turning to “Ash2L: absent small or homoeotic 2-like, WRAD2 component”, the Kd (usually a measure of binding affinity in units of concentration) amounted to 4 nM.
